Experimental data as given in US20050020544A1, “Bicyclic CB2 cannabinoid receptor ligands” (priority 2002, published 2005).

Protein sequences, listed by entry. Tags and fused reporters are not part of them.
UniProt P34972, whole entry: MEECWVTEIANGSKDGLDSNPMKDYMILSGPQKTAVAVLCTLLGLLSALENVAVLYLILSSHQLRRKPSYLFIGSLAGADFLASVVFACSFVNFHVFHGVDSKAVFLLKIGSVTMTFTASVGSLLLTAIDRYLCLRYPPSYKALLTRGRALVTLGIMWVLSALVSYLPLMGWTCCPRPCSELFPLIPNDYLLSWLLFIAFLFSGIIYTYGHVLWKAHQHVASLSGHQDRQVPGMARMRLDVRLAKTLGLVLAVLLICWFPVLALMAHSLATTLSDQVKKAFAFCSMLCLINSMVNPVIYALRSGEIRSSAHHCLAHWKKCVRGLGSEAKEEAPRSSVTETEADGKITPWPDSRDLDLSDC

Target: human CB2 receptor (Homo sapiens, UniProt P34972)
Assay: biochemical
Assay type: binding
Parameters: purchased Perkin Elmer/NEN; host or cells: CHO cells, stably transfected (membranes)
Description: In the present invention, binding affinity is represented by the IC50 value, namely the concentration of a test compound that will displace 50% of a radiolabeled agonist from the CB receptors. […] Preferably these ratios will be obtained for human CB1 and CB2 receptors. The selectivity toward CB2, denoted CB2/CB1 affinity, is calculated as the IC50 value obtained by the test compound for the displacement of the CB1 specific radioligand divided by the IC50 value obtained for the displacement of the CB2 specific radioligand, i.e. the IC50 CB1/IC50 CB2.
The affinities of the novel bicyclic analogs to the CB2 receptor were determined by their ability to displace [^3H]WIN 55212-2 from the receptor in membranes derived from hCB2 stably transfected CHO cells (Perkin Elmer/NEN). Membranes were diluted in assay buffer (10 mM HEPES, 1 mM MgCl2, 1 mM EDTA, 0.3 mg/ml BSA, pH=7.4) to 500 μg protein/ml. […] Non-specific binding was measured by the addition of 10 μM CP 55940. […] Filters for all binding assays were counted in a β-counter and log of analog concentration versus % of binding was plotted. […]
Binding to CB1 is measured by competitive inhibition of [^3H]CP55940 in HEK-293 cells stably transfected with the human CB1 receptor gene. Binding to CB2 is measured by competitive inhibition of [^3H]WIN55212-2 in CHO cells stably transfected with the human CB2 receptor gene.

## CCCCCCC(C)(C)c1cc(OC)c(C2C=C(CO)C3CC2C3(C)C)c(OC)c1 (single isomer, unassigned; (+)) [HU-308, (+) {4-[4-(1,1-dimethylheptyl)-2,6-dimethoxy-phenyl]-6,6-dimethyl-bicyclo[3.1.1]hept-2-en-2-yl}-methanol, reference compound]
  IC50: 13.3 nM
